Measured values as given in US6994868B2, “Compositions useful as inhibitors of ERK” (Vertex Pharmaceuticals Incorporated, priority 2000, dated 2006).

Sequences of proteins named here, by UniProt entry; tags and fusion partners are left off.
UniProt P28482, whole entry: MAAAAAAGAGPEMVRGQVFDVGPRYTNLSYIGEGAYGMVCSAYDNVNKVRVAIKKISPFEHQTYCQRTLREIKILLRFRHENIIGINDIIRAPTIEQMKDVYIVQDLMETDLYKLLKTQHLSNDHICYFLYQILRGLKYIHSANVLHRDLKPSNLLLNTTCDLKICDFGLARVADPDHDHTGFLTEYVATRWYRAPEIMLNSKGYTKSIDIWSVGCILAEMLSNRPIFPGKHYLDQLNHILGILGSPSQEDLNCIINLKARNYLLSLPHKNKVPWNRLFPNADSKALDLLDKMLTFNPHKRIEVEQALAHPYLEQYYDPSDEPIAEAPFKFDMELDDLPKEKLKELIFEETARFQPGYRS

Target: activated ERK2 (Homo sapiens, UniProt P28482)
Assay: ERK inhibition assay (spectrophotometric coupled-enzyme assay)
Format: biochemical
Settings: activated ERK2 10 nM, 65 μM ATP, 200 μM erktide peptide, 30° C., pH 7.5; read-out: ERK2 Inhibitory Activity (Ki class)

COc1cccc(-c2cn[nH]c2-c2c[nH]c(C(=O)NC(C)C)c2)c1 [II-A-159]
Ki: 1000 to 5000 nM
